## Binding of CDR-mutated scFvs to a peptide of the spike HR2 region

Source: Li et al. 2023 (doi:10.1038/s41467-023-39022-2), MIT Lincoln Laboratory and A-Alpha Bio; data file from the FLAb repository.

Binding partner: SARS-CoV-2 spike HR2 peptide, sequence PDVDLGDISGINAS.

Parent: Ab-14, a human scFv built as VH, a (GGGGS)3 linker, VL. Only the CDRs of the light chain vary.
VH: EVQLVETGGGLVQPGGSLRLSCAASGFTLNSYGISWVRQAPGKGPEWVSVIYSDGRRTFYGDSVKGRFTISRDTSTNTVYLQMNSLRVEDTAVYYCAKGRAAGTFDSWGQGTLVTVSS
VL: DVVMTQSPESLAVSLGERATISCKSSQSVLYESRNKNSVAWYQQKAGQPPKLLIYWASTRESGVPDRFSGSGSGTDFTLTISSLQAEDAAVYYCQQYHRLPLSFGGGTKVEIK

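Phage display of a naive human antibody library on the peptide gave the parent. Designed CDR sequences, proposed from the first random library and measured here. Several design methods are mixed in this list. The scFvs were displayed on barcoded MATa yeast, the peptide on MATalpha yeast. Binding brings cells together so that they mate, and sequencing counts the barcode pairs among the diploids. Each replicate has its own calibration line, from reference interactions of the BCL2 family. There are six technical replicates.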

Variants are written as CDR1, CDR2 and CDR3 of the light chain (limits as in the source). Parent: KSSQSVLYESRNKNSVA, WASTRES, QQYHRLPLS. Variants here have at most six changes. Values are log10 of the apparent Kd in nM; lower means stronger binding. A mean of the replicates is given; it leaves out those without a signal. "nd" means that the variant was in the library but no mating with the target was seen in that replicate; the authors take this as a sign of poor binding, and no number exists. The authors averaged sequences with at least three values out of six and counted those with two or fewer as poor binders. Three control strains display no target. For all light chain designs, 4% of the pairings with them gave a signal, with a median of 2.64 and one signal in twenty below 1.59, so weak values seen in few replicates may be background. Also given: how often the same scFv was detected with the empty control strains. The range of this assay differs from that of the first round, and the authors advise against merging the two.

* KSSQSVLYEERNKNSVA, WASTRES, QQYHRLPLS = 1.77, 1.75, 1.83, 2.89, 2.17, 2.35 (mean 2.13; controls 0 of 18)
* KLSQSRLYESRNKNSVA, HASLRLS, QCYHRLPLS = 0.32, 0.23, 0.04, 0.01, 0.09, 0.24 (mean 0.15; controls 3 of 18)
* KLRQSTLYESRNPNSVA, HASTRES, QQYHRLPLS = 0.31, 0.38, 0.08, 0.06, 0.25, 0.11 (mean 0.20; controls 2 of 18)
* KSSQSVLDESHNKNSVA, WASTRES, QQYHRLPLC = 0.89, 0.72, 0.66, 0.67, 1.01, 1.08 (mean 0.84; controls 2 of 18)
* KSSQSWLYEDRVKNSVA, GASTRLS, QQYHRLPLS = 0.23, 0.01, 0.17, -0.25, 0.08, 0.28 (mean 0.09; controls 1 of 18)
* KYSQSWLYESRNKNSVA, GASTREN, QQYHRLPLS = 0.32, 0.18, 0.40, -0.10, 0.14, 0.16 (mean 0.18; controls 0 of 18)
* KSSQSILYESRNKNSVA, WASTRVS, QQYKRLPLS = 1.80, 1.39, 2.07, 1.71, 1.00, 1.85 (mean 1.64; controls 2 of 18)
* KSSQSVLYESRNKNSVA, WASTRES, QQYHRLPLT = 1.75, 2.39, 1.10, 2.03, 1.67, 2.20 (mean 1.86; controls 1 of 18)
* KSSGSVKFESRNKNSVA, DASTRES, QQYHRLPLS = 0.77, 0.09, 0.31, 0.20, 0.25, 0.51 (mean 0.36; controls 0 of 18)
* KSSQSVKFESRNKNSVA, DASTRES, QQYHRLPLS = 0.66, 0.59, 0.42, 0.84, 0.35, 0.37 (mean 0.54; controls 0 of 18)
* KLSISYLYESRNKNSVA, EASTRES, QQYHRMPLS = 0.08, 0.10, 0.30, 0.09, 0.25, 0.27 (mean 0.18; controls 0 of 18)
* KVSQSWLYESRNKNSVA, NASLRES, QQYHRLPLS = 0.85, 0.72, 0.74, 0.30, 0.72, 0.35 (mean 0.61; controls 1 of 18)
* KSSISYHYESRNKNSVA, EDSTRES, QQYHRLHLS = 2.20, 1.09, 2.07, nd, 0.80, 1.81 (mean 1.60; controls 0 of 18)
* KLPQSTLYESRNKNSVA, NASTRLS, QQYHRLPLS = 0.01, 0.41, 0.40, 0.37, 0.29, 0.49 (mean 0.33; controls 1 of 18)
* KLSQSVLYESRNKNSVA, NASTRLM, QQYHRLPLS = 0.21, -0.03, -0.03, -0.27, -0.09, 0.11 (mean -0.02; controls 3 of 18)
* KSSQSPLYESRNKNSVA, WASTRES, QQYHRIPLS = nd, nd, nd, nd, nd, nd (controls 0 of 18)
* KSSGSVLYESRNKNHVA, WASTRES, QQYHRLPLS = nd, nd, nd, nd, nd, 2.27 (controls 0 of 18)
* KSSMSYLYESRNKNSVA, AASTRES, QQYHRLPLS = 0.71, 0.68, 0.67, 0.56, 0.41, 0.47 (mean 0.58; controls 0 of 18)
* KLPQSELYESRNKNSVA, NASQREE, QQYHRLPLS = 0.15, 0.06, 0.27, -0.20, 0.17, 0.30 (mean 0.12; controls 1 of 18)
* KLSQSVLYESRNFNSVA, GASTRES, QQYHRLPLS = 0.76, 0.43, 0.72, 0.83, 0.59, 0.58 (mean 0.65; controls 1 of 18)
* KLSQSVLYESRMKNSVA, NASTRES, QQYHRLPLS = -0.24, -0.18, -0.35, -0.53, -0.25, -0.20 (mean -0.29; controls 1 of 18)
* KRQQSVTYESRNKNSVA, WASTRES, QQYHRLPLS = nd, nd, nd, nd, nd, nd (controls 0 of 18)
* KLSQSVLYESRNKNSVA, HASTRVS, QQYHRLPLS = 0.01, 0.10, -0.01, -0.11, 0.04, 0.25 (mean 0.05; controls 2 of 18)
* KLSQSWLYESRNKNSVA, EASTRED, QQYHRLPLS = 0.53, 0.24, 0.29, 0.24, 0.07, 0.26 (mean 0.27; controls 0 of 18)
* KSSQSVAYESRNKNSVA, WASTRES, QQYHGLPLS = nd, nd, nd, nd, nd, nd (controls 1 of 18)
* KLSQSVWVLERNKNSVA, NASTRES, QQYHRLPLS = 0.33, 0.23, 0.32, 0.03, 0.08, 0.32 (mean 0.22; controls 1 of 18)
* KQSQSVLPESRNKNSVA, DASTRES, QQYHRLPLS = 0.50, 0.73, 0.44, 0.68, 0.39, 1.02 (mean 0.63; controls 0 of 18)
* KSSQSVLYESLNFNSVA, WASTRES, QQYNRLPLS = 1.69, nd, nd, 2.50, 1.61, nd (mean 1.93; controls 1 of 18)
* KISQSVLYESRNKNSVA, QASTRES, QQYPRLPLS = 1.21, 0.74, 0.60, 0.58, 0.55, 0.75 (mean 0.74; controls 0 of 18)
* KLSGSQLYESRNKNSVA, GASTRES, QQYHRLPLS = -0.21, -0.13, -0.13, -0.34, -0.26, -0.08 (mean -0.19; controls 4 of 18)
* KSQQSELYESRNKNSVA, NASQRLS, QQYHRLPLS = 0.21, 0.14, 0.19, 0.05, -0.31, 0.23 (mean 0.08; controls 2 of 18)
* KVSPSWLYESRNKNSVA, NASTRES, QQYHRLPLS = 0.02, -0.06, -0.18, -0.15, 0.06, 0.11 (mean -0.03; controls 0 of 18)
* KSSQSVLYESRNKNSVA, WAKTRES, QQYARLPLK = 2.34, 1.42, 1.01, 0.32, 1.29, nd (mean 1.28; controls 0 of 18)
* KSSPSDLYSSRNQNSVA, SASTRES, QQYHRLPLS = 0.07, 0.15, -0.08, -0.13, -0.15, 0.15 (mean 0.00; controls 0 of 18)
* KLPQSVLYESRNPNSVA, NASTRES, QQYHRLPLS = -0.23, -0.25, -0.24, -0.46, -0.15, -0.25 (mean -0.26; controls 3 of 18)
* HSSPSVAYESRNKNSVA, NASTREE, QQYHRLPLS = 0.40, 0.27, 0.18, -0.12, -0.01, 0.11 (mean 0.14; controls 1 of 18)
* KSSQSFLYESRQKNSVA, NASQRES, QQYHRLPLS = 0.53, 0.20, 0.33, 0.11, 0.11, 0.39 (mean 0.28; controls 0 of 18)
* KLQQSQLYESRNKNSVA, SASTRES, QQYHRLPLS = 0.41, 0.28, 0.31, -0.04, 0.08, 0.22 (mean 0.21; controls 1 of 18)
* KISQSVLYESRNKSSVA, WASTRES, QQYHRLPLS = 2.12, 1.87, 1.39, 2.37, 1.87, 1.90 (mean 1.92; controls 1 of 18)
* KLSQSVLYESRNKNSVA, NAHTRES, QQYHRLPLS = -0.03, -0.53, -0.31, -0.53, -0.37, -0.35 (mean -0.35; controls 0 of 18)
* KVSQAFLYESRNKNSVA, DANTRES, QQYHRLPLS = 0.09, -0.35, -0.41, -0.36, -0.40, -0.07 (mean -0.25; controls 0 of 18)
* KSSQSVLYESRNKNSVA, NASQRES, QQYHRLPLS = 0.47, 0.35, 0.28, 0.16, 0.29, 0.41 (mean 0.33; controls 4 of 18)
* KSQQGALYESRNKNSVA, GASTRES, QQYHRLPLS = 0.11, -0.19, -0.14, -0.17, -0.17, 0.14 (mean -0.07; controls 0 of 18)
* HLSQSVLYESRNKNSVA, NASTRYS, QQYHRLPLS = 0.05, -0.13, -0.18, -0.13, -0.34, 0.18 (mean -0.09; controls 1 of 18)
* KLSQSWLYESRMKNSVA, NASTRED, QQYHRLPLS = 0.12, -0.04, -0.11, 0.01, -0.11, 0.15 (mean 0.00; controls 3 of 18)
* HSSQSVLYESRNKNSVA, WASTREL, QQYHRLPLS = nd, 2.00, 2.40, 1.72, nd, 2.78 (mean 2.23; controls 0 of 18)
* KFSPSWLYESRTKNSVA, NASTRES, QQYHRLPLS = 0.05, 0.00, -0.46, -0.85, -0.55, -0.34 (mean -0.36; controls 0 of 18)
* MISQSVLYESRNKNSVA, WASTRES, QQYHRLPIS = 1.52, nd, nd, nd, 2.73, 1.65 (mean 1.97; controls 0 of 18)
* KSSQSVMYESRNKNSVA, RASTRES, QQYHRLPLS = 1.64, 2.43, 1.72, 2.01, 1.89, 1.82 (mean 1.92; controls 1 of 18)

Picked from the list: the 8 lowest averages where every replicate gave a value.

* KFSPSWLYESRTKNSVA, NASTRES, QQYHRLPLS: 0.05, 0.00, -0.46, -0.85, -0.55, -0.34 (mean -0.36; controls 0 of 18)
* KLSQSVLYESRNKNSVA, NAHTRES, QQYHRLPLS: -0.03, -0.53, -0.31, -0.53, -0.37, -0.35 (mean -0.35; controls 0 of 18)
* KLSQSVLYESRMKNSVA, NASTRES, QQYHRLPLS: -0.24, -0.18, -0.35, -0.53, -0.25, -0.20 (mean -0.29; controls 1 of 18)
* KLPQSVLYESRNPNSVA, NASTRES, QQYHRLPLS: -0.23, -0.25, -0.24, -0.46, -0.15, -0.25 (mean -0.26; controls 3 of 18)
* KVSQAFLYESRNKNSVA, DANTRES, QQYHRLPLS: 0.09, -0.35, -0.41, -0.36, -0.40, -0.07 (mean -0.25; controls 0 of 18)
* KLSGSQLYESRNKNSVA, GASTRES, QQYHRLPLS: -0.21, -0.13, -0.13, -0.34, -0.26, -0.08 (mean -0.19; controls 4 of 18)
* HLSQSVLYESRNKNSVA, NASTRYS, QQYHRLPLS: 0.05, -0.13, -0.18, -0.13, -0.34, 0.18 (mean -0.09; controls 1 of 18)
* KSQQGALYESRNKNSVA, GASTRES, QQYHRLPLS: 0.11, -0.19, -0.14, -0.17, -0.17, 0.14 (mean -0.07; controls 0 of 18)